In US11925672B2, “Peptide having antioxidant activity and composition containing same” (SEMPIO FOODS COMPANY, priority 2018, dated 2024):

What was measured:
SOD2 mRNA = SOD2 mRNA expression level by real-time PCR in Tert-BHP-treated HEK293 cells; type: cell-based; conditions: Tert-BHP 300 μM, peptide 500 μM, 18 hours
Procedure: The expression of SOD2 mRNA as another antioxidant factor was determined. The cell line culture, RNA extraction, cDNA synthesis and PCR experiments were performed in the same manner as in Experimental Example 5 above. A detailed description thereof is given below.
(§1) An HEK293 cell (kidney cell) line was seeded at a density of 6.6×10^5/well in DMEM (Dulbecco's Modified Eagle's Medium) medium on a 6-well plate and cultured at 37° C. and 5% CO2 for 24 hours. The next day, the medium was exchanged with serum and amino-acid-free media, and then the cells were further cultured for 20 hours or longer. The cells were treated with Tert-BHP (300 μM) and 500 μM 100 types of peptides, and then cultured for 18 hours.
RNA was extracted from the cells treated with 100 types of peptides in (1) using TRIzol (Thermo Fisher Scientific). A GoScript™ Reverse Transcription System (Promega, Wisconsin, USA) was used to synthesize cDNA from the RNA. The cDNA was synthesized by performing annealing with 1 μg RNA, 0.5 μg of an oligo dt primer, 0.5 μg of a random primer, and RT-PCR pre-mixture at 25° C. for 5 minutes, extension at 42° C. for 60 minutes, and inactivation at 70° C. for 15 minutes.
(§2) PCR was performed using Maxime™ PCR PreMix (i-StarTaq) (Intron Biotechnology, Korea). Real-time PCR was performed using SsoAdvanced™ Universal SYBR® Green Supermix (Bio-Rad, USA). 100 ng of cDNA, 2 μM (pmol/μl) primers, 10 μl of 2X SsoAdvanced™ Universal SYBR® Green Supermix and DW were added to the PCR plate well. Then, the temperature was cyclically adjusted to 95° C. for 3 minutes, 95° C. for 10 seconds and 58° C. for 40 seconds for a total of 40 cycles. A PCR reaction was performed using the CFX96 Touch™ Real-Time PCR Detection System (Bio-Rad, California, USA), and fluorescence intensity was measured at the end of each cycle.

Nrf2 mRNA = Nrf2 mRNA expression level by real-time PCR in Tert-BHP-treated HEK293 cells; type: cell-based; conditions: Tert-BHP 300 μM, peptide 500 μM, 18 hours
Procedure: In the present invention, the antioxidant activity was compared between the 100 types of peptides, and the change in Nrf2 mRNA expression was measured through PCR in order to select the final peptide.
as §1, with “C. under” for “C. and”
RNA was extracted from the cells treated with 100 types of peptides in (1) using TRIzol (Thermo Fisher Scientific). A GoScript™ Reverse Transcription System (Promega, Wisconsin, USA) was used to synthesize cDNA from the RNA. The cDNA was synthesized by performing annealing using 1 μg of RNA, 0.5 μg of an oligo dt primer, 0.5 μg of a random primer and RT-PCR pre-mixture at 25° C. for 5 minutes, extension at 42° C. for 60 minutes, and inactivation at 70° C. for 15 minutes.
as §2, with “using a” for “using the”

[1] = DPPH-scavenging ability assay; type: biochemical; conditions: peptides; vs GSH
Procedure: 2. DPPH (2,2-Diphenyl-1-Picryl-Hydrazyl-Hydrate) Assay Method
The antioxidant activity due to the DPPH-scavenging ability of yeast hydrolyzates was measured using the methods of Choi Chang-seop et al. (2003) and Shekhar et al. (2014). 20 μl of a sample (1 to 5000 μg/ml) dissolved in distilled water was added to 180 μl of an ethanol solution containing DPPH (0.111 mM). The resulting mixture was allowed to react at 25° C. for 30 minutes, and absorbance was measured at 517 nm. Ascorbic acid was used to create the standard curve, and DPPH-scavenging ability (%) was calculated and expressed by the equation of [(absorbance upon no addition of sample−absorbance of sample)/absorbance upon no addition of sample]×100.
(§3) The DPPH-scavenging ability and reducing power of the fractions of respective yeast hydrolyzates (Preparation Examples 1 to 4) were measured using the same method of measuring DPPH-scavenging ability and reducing power as in Experimental Example 1.

[2] = Reducing power assay (method of Oyaizu); conditions: peptides; vs GSH
Procedure: 3. Reducing Power Assay Method
The reducing power of yeast hydrolysates was measured using the method of Oyaizu (1986). Specifically, a sample (1-5000 μg/ml, 60 μl) dissolved in distilled water was mixed with phosphate buffer (150 μl, 0.2M, pH 6.6) and potassium ferricyanide (K 3 Fe(CN) 6, 150 μl, 1%), followed by reacting at 50° C. for 20 minutes. Further, 150 μl of trichloroacetic acid (10%) was added thereto, followed by centrifugation at 2,000 g for 10 minutes. 150 μl of the supernatant containing the sample was added to 150 μl of DW and FeCl3 (30 μl, 0.1%). The resulting mixture was allowed to react at 25° C. for 10 minutes, and absorbance was measured at 700 nm.
as §3

γ-GLU-ILE (EI; gamma-glutamyl linkage; The peptide is a formed by condensation of the gamma-carboxy group of L-glutamic acid with the amino group of L-isoleucine.)
effect on SOD2 mRNA expression (SOD2 mRNA; FIG. 6): increased SOD2 mRNA expression
SOD2 mRNA expression compared to positive control GSH (SOD2 mRNA; vs GSH): comparable or superior; also recorded: statistically significant activity
effect on expression of Nrf2 mRNA (Nrf2 mRNA; FIGS. 5A to 5C): improve the expression of Nrf2 mRNA
Nrf2 mRNA expression compared to positive control GSH (Nrf2 mRNA; vs GSH): statistically significant activity; also recorded: comparable or superior to GSH
DPPH-scavenging ability of peptide compared to GSH [1]: comparable or superior to GSH
reducing power of peptide compared to GSH [2]: comparable or superior to GSH

Entries after “also recorded” stand apart in the source; their conditions may differ.
